Laboratory results reported in patent publication US7407968B2, “Compounds” (AstraZeneca AB, priority 2003, dated 2008).
pKi: −log10 of the molar value. This is a selection: effects in other tests are not listed, and their absence says nothing.

Sequences of proteins named here, by UniProt entry; tags and fusion partners are left off.
UniProt P34972, whole entry: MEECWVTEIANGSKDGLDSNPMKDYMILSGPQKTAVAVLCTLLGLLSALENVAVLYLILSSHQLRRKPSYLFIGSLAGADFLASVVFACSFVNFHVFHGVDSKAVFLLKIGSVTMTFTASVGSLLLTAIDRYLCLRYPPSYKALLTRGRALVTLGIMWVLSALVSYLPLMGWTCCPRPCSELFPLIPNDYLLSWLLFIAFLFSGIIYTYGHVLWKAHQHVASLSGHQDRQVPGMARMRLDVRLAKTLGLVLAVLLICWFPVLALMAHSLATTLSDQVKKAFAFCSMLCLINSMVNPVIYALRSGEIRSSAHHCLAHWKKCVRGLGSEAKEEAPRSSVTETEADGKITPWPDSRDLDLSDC
UniProt P21554, whole entry: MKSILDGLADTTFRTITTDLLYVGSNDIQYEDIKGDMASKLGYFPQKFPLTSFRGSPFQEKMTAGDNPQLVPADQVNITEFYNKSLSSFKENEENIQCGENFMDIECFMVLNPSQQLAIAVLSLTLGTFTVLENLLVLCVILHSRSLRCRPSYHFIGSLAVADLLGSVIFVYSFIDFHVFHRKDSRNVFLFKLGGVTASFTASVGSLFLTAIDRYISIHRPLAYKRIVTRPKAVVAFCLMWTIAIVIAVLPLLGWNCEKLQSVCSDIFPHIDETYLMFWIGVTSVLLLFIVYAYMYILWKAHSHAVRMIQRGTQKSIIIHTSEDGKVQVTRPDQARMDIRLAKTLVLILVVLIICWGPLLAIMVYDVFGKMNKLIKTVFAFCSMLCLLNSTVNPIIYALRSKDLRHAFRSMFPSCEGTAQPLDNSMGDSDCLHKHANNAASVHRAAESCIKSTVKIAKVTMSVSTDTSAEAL

Tests used:
[1] = biological target: human CB2 receptor from BioSignal (hCB2) (Homo sapiens, UniProt P34972); assay: hCB2 receptor binding (3H-CP55,940 displacement); conditions: read-out: hCB2 Ki; hCB2 membranes, 3H-CP55,940 radioligand; Ki=IC50/(1+[rad]/Kd)
[2] = biological target: Human CB1 receptor from Receptor Biology (hCB1) (Homo sapiens, UniProt P21554); assay: hCB1 receptor binding (3H-CP55,940 displacement); conditions: read-out: hCB1 Ki; hCB1 membranes, 3H-CP55,940 radioligand; Ki=IC50/(1+[rad]/Kd)

| Compound | pKi [1] | pKi [2] |
| --- | --- | --- |
| CCOc1ccc(Cc2nc3cc(C(=O)N(CC(F)(F)F)CC(F)(F)F)ccc3n2CC2COCCN2C)cc1 (centres unmarked) | 7.25 | 5.25 |
| CC(C)Oc1ccc(Cc2nc3cc(C(=O)N(CC(F)(F)F)CC(F)(F)F)ccc3n2C[C@H]2CCCCN2C)cc1 | 7.87 | 6.08 |
| CCOc1ccc(Cc2nc3cc(C(=O)N(CC(F)(F)F)CC(F)(F)F)ccc3n2CC2COCCN2C)nc1 (centres unmarked) | 5.80 | 5.25 |
| CCOc1ccc(C(C)c2nc3cc(C(=O)N(CC(F)(F)F)CC(F)(F)F)ccc3n2CC2CCCN2)cc1 (centres unmarked) | 6.35 | 5.29 |
